Measurements as given in patent US20240109885A1, “2,3-DIHYDRO-1H-PYRROLO[3,2-B]PYRIDINE DERIVATIVE, PREPARATION METHOD THEREFOR, AND APPLICATION THEREOF” (Abbisko Therapeutics Co., Ltd, priority 2020, published 2024).

By UniProt entry, the sequences of proteins in these tests, tags left out. Chains listed by the source or under a name are the forms on record and can include a tag or linker.
UniProt P00533, with tags, fused parts or gaps DUP767-769: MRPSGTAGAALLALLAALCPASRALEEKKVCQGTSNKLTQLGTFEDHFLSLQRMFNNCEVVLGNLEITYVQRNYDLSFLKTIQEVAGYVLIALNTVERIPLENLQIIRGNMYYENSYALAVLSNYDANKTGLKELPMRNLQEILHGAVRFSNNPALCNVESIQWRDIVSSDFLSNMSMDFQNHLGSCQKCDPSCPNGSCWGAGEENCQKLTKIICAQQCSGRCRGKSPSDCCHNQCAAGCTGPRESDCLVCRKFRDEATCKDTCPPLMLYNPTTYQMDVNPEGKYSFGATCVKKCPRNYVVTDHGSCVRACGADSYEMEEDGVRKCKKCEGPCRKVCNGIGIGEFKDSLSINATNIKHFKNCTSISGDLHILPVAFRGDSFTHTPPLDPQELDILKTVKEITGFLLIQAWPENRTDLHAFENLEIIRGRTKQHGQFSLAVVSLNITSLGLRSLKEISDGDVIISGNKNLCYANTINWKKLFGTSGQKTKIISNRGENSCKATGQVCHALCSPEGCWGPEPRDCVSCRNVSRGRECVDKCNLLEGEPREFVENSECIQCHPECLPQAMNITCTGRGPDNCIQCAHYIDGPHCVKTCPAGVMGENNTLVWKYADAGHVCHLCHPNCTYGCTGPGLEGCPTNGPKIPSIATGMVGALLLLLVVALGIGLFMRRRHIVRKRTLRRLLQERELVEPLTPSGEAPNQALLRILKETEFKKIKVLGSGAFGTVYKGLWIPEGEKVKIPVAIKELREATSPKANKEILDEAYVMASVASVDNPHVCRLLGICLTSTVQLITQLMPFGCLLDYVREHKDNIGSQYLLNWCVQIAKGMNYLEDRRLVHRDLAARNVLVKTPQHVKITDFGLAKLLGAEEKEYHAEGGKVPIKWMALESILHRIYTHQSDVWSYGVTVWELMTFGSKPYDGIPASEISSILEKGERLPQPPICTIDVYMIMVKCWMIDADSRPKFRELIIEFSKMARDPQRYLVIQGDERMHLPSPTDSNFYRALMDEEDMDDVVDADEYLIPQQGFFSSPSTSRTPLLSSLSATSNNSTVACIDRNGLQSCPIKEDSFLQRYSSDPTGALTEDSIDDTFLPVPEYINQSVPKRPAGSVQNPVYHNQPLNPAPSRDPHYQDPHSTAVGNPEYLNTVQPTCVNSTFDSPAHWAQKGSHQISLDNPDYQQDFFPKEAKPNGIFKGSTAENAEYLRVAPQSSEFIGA
UniProt P00533, with tags, fused parts or gaps DUP768-770: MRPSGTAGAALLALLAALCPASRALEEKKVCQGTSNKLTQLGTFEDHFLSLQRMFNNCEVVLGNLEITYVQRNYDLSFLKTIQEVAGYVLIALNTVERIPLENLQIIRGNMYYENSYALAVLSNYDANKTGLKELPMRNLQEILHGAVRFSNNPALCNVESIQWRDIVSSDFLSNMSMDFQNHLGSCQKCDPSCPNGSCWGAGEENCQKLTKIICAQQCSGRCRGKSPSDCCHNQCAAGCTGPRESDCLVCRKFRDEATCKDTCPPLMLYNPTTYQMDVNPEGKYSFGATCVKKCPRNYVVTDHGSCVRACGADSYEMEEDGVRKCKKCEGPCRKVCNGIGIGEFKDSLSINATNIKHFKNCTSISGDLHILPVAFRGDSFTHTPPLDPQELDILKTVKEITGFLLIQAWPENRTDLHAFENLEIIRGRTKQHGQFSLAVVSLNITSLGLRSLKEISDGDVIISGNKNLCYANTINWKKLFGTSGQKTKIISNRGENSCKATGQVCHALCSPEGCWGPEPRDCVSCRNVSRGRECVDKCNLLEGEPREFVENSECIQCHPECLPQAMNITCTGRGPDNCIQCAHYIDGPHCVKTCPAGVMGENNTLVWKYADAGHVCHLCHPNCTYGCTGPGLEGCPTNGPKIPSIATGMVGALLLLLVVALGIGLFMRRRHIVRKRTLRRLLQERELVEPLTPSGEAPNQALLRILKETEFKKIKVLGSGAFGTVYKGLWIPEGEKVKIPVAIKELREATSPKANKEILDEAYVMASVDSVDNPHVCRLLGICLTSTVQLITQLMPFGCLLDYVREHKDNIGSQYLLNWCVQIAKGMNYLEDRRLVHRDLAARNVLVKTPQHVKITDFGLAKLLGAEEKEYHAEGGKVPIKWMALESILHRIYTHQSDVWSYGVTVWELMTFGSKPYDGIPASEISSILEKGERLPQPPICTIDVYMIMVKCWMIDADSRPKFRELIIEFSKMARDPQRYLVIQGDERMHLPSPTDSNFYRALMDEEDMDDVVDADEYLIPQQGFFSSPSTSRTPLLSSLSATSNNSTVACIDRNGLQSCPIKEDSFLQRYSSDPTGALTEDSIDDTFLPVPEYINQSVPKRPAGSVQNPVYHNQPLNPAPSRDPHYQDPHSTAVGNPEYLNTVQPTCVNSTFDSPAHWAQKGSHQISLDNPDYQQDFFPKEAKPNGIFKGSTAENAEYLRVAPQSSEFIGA

Legend:
[1] = target: Ba/F3 EGFR-V769_D770insASV (Homo sapiens, UniProt P00533, DUP767-769, cells depend on it); assay: Cell proliferation assay (CellTiter-Glo), Ba/F3 EGFR-V769_D770insASV cells; conditions: read-out: Ba/F3 EGFR-V769_D770insASV (nM), IC50 of cell proliferation, 72 hrs, CTG assay, * = average of multiple measurements
Procedure: (§1) I. Cell proliferation assay (i) Reagents and consumables • Fetal bovine serum (FBS) (GBICO, Cat #10099-141); • CellTiter-Glo® Luminescent Cell Viability Assay Kit (Promega, Cat #G7572); • Black transparent flat-bottomed 96-well plate (Corning®, Cat #3603).
(§2) • SpectraMax Multi-Label Microplate Detector MD, 2104-0010A; • CO2 incubator, Thermo Scientific 3100 Series; • Biosafety cabinet, Thermo Scientific, 1300 Series type A2; • Inverted microscope, Olympus, CKX41SF; • Siemens refrigerator KK25E76TI. (iii) Cell lines and culture conditions
(§3) (iv) Experimental procedures 1. Cell culture and seeding: • (1) Cells in the logarithmic growth phase were harvested, and counted using a platelet counter. Cell viability was detected by the trypan blue exclusion assay to ensure that the cell viability was above 90%. • (2) The cell concentration was adjusted to achieve the final density; and 90 μL of the cell suspension was added to the 96-well plate. • (3) The cells were incubated in the 96-well plate overnight at 37° C. in the presence of 5% CO2 with 95% humidity. 2. […] Reading of luminescent signals • (1) The CTG reagent was thawed, and the cell plate was equilibrated to room temperature for 30 min. • (2) An equal volume of CTG solution was added to each well. • (3) The cells were shaken for 5 min on an orbital shaker for lysis. […]

A431 (EGFR-WT) = assay: Cell proliferation assay (CellTiter-Glo), A431 cells; conditions: read-out: A431 (EGFR-WT) (nM), IC50 of cell proliferation, 72 hrs, CTG assay, * = average of multiple measurements
Procedure: as §1, §2, §3

[2] = target: Ba/F3 EGFR-D770-N771ins_SVD (Homo sapiens, UniProt P00533, DUP768-770, cells depend on it); assay: Cell proliferation assay (CellTiter-Glo), Ba/F3 EGFR-D770-N771ins_SVD cells; conditions: read-out: Ba/F3 EGFR-D770-N771ins_SVD (nM), IC50 of cell proliferation, 72 hrs, CTG assay, * = average of multiple measurements
Procedure: as §1, §2, §3

GI50 [1]: 58.6 nM | IC50 (A431 (EGFR-WT)): 280 nM | GI50 [2]: 66.8 nM
Structure (SMILES): C=CC(=O)Nc1cc(Nc2ncnc(N3CC(C)(C)c4ncccc43)n2)c(OC)cc1N(C)CCN(C)C
